Source: ChEMBL document CHEMBL5723584 (2023)

Chains of the proteins cited; added tags and fusions are not shown.
UniProt O14578, whole entry: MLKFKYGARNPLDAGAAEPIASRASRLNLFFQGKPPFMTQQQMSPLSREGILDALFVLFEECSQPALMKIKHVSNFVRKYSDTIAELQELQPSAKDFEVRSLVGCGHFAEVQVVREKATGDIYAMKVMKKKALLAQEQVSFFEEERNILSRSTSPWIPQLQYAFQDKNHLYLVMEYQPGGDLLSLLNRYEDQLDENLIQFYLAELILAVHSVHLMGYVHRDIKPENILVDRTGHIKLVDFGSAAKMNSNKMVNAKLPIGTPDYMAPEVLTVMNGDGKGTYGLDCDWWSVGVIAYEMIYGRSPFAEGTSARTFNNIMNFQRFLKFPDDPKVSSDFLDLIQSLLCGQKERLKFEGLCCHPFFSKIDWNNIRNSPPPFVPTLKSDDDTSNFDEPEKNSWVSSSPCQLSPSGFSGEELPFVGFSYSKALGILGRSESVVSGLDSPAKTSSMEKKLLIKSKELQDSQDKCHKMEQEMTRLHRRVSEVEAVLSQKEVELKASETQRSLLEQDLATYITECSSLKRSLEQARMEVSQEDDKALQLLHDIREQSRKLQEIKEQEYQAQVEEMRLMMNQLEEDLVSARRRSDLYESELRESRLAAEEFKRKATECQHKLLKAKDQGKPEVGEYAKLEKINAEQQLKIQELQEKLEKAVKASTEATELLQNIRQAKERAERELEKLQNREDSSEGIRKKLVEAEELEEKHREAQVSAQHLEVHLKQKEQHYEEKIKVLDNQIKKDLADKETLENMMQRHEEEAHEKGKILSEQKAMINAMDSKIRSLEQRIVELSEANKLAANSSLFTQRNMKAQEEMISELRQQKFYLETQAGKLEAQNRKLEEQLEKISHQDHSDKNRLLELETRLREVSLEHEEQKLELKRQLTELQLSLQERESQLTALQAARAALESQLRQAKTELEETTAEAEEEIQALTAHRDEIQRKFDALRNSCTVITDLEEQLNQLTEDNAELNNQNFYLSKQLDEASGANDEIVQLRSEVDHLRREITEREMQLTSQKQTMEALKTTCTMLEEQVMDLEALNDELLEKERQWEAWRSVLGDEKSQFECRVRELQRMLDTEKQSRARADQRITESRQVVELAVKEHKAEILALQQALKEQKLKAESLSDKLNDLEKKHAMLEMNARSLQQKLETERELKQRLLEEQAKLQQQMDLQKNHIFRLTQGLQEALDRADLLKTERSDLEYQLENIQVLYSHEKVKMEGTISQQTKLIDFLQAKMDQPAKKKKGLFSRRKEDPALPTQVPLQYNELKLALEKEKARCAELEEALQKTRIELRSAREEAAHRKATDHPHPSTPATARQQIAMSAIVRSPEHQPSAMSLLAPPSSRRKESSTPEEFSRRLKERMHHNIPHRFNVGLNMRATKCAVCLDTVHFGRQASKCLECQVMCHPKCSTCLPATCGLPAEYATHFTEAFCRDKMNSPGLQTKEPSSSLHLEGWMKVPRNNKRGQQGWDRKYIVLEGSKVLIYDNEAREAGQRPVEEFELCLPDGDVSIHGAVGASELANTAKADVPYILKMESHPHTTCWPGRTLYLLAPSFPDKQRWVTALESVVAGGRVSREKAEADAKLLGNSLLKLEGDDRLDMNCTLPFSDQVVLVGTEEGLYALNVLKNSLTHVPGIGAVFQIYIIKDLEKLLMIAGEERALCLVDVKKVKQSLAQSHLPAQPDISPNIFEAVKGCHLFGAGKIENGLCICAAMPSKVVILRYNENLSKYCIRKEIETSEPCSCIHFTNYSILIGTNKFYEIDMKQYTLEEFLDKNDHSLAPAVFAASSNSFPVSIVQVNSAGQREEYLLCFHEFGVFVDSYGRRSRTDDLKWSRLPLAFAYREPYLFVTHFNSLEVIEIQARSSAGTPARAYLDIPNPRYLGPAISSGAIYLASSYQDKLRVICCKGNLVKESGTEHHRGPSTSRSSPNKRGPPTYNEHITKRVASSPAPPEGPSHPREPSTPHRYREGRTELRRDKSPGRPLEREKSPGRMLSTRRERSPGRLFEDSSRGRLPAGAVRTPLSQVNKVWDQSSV

Assays:
[1] = target: T1, Citron Rho-interacting kinase (Homo sapiens, UniProt O14578); assay: DSF (CITKKD-c014 hyperphosphorylated); details: filed as antagonist
[2] = target: T1, Citron Rho-interacting kinase; assay: DSF (CITKKD-c006 dephosphorylated); details: filed as antagonist

Compound: Cc1cc2c(-c3ccc(NC(=O)[C@H](N)CC(C)(C)C)cc3C)ccnc2[nH]1
- ΔTm [1]: 2.1 °C
- ΔTm [2]: 2.1 °C
